The subject of this series is zebrafish larvae. Briefly: In vivo toxicity in zebrafish larvae. To be noted: larvae treated at 3 dpf, 48 h of treatment, viability at 5 dpf.

The values that follow come from publication PMC12305496, “Bilosomal Encapsulation of Binuclear Phosphino Ru(II)–Cu(II) Compounds Enhances Their Selectivity and Activity toward Lung and Prostate Cancers” (Journal of Medicinal Chemistry, 2025).

For orientation: LC50 means the concentration lethal to half of the exposed cells or organisms. With “[Ru(η^6-p-cymene)Cl2Pcfx-Cu(phen)](NO3) [RuPCpCu]”, the LC50 was 33.3 µM. In other words, the double-digit micromolar range.

The substance “[Ru(η^6-p-cymene)Cl2Plfx-Cu(phen)](NO3) [RuPLmCu]” gave an LC50 of 34 µM.

Substance “[Ru(η^6-p-cymene)Cl2Pnfx-Cu(phen)](NO3) [RuPNrCu]” returned an LC50 of 50.4 µM. The LC50 values of the last two substances are within 1.5-fold of each other.

“[Ru(η^6-p-cymene)Cl2Psfx-Cu(phen)] [RuPSfCu]”: the LC50 was 31.9 µM.
